Data published in PubChem BioAssay AID434973 (Sanford-Burnham Center for Chemical Genomics, 2010).
This is a selection; strong and weak results do not stand in their true shares. Active and inactive are the calls of the source.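 Rule for the calls: active = inhibition above about 50% at the single test dose (limit read from the data); inactive = the rest.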

Protein sequences, listed by entry. Tags and fused reporters are not part of them. Lines headed by an entry give the natural chain unless they say otherwise; changes in a name come on top.
UniProt Q9BQF6: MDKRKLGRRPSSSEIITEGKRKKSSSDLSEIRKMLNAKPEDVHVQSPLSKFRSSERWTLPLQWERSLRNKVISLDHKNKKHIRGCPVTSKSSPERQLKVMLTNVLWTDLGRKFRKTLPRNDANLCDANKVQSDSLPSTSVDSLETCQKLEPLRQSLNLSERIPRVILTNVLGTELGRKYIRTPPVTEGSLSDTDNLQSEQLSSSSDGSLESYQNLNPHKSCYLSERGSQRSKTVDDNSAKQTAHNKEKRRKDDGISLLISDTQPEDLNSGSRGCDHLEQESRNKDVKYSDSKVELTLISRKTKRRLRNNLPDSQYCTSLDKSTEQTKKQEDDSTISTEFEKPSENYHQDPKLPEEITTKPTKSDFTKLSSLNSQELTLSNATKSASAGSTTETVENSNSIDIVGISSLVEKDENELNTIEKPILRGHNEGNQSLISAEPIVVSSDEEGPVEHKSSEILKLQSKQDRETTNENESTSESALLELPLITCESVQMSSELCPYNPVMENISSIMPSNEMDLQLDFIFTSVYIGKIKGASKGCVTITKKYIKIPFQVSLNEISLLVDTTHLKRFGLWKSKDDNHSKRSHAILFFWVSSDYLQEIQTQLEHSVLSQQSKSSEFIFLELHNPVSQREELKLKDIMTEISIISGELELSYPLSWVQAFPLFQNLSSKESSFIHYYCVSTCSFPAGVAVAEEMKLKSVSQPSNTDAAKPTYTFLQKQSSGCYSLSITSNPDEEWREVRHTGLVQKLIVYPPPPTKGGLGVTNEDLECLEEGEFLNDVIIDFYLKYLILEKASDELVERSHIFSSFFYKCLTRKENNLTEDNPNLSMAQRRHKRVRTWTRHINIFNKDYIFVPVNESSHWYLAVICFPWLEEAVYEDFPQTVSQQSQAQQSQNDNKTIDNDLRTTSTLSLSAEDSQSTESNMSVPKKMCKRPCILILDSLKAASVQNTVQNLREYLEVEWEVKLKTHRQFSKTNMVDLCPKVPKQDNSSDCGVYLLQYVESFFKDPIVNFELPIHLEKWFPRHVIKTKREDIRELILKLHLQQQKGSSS

What follows are molecules tested against Sentrin-specific protease 7 (Homo sapiens) (UniProt Q9BQF6) (assay: blockers of human SENP7 peptidase activity – biochemical, luminescence, uHTS, primary screen (AID 434973;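 note: plate controls were DMSO with enzyme for no effect and no enzyme buffer wells for full effect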)). Details: recombinant SENP7, Z-RLRGG-aminoluciferin luminescence, 40 min; at 5 µM; hits give high values.

| SMILES | inhibition |
| --- | --- |
| COc1cc(C2NCCC3(OCCO3)C2(C)C)cc(OC)c1OC (stereo unspecified) | inactive: 4.44% |
| CCOP(=O)(Nc1cccc2ccccc12)OCC | inactive: -2.44% |
| Cc1ccc(NCCc2c([N+](=O)[O-])cc([N+](=O)[O-])cc2[N+](=O)[O-])cc1 | inactive: 12.2% |
| CCCOP(=S)(Nc1nc(N)cc(=O)[nH]1)OCCC | inactive: -5.25% |
| O=[As](O)(c1cccc(O)c1)c1cccc(O)c1 | inactive: 8.03% |
| Cc1cccc(OCC(=O)OC2CN3CCC2CC3)c1 (stereo unspecified) | inactive: 3.02% |
| O=C(OC1CN2CCC1CC2)c1ccc(Cl)cc1 (stereo unspecified) | inactive: -0.508% |
| COc1cc(C(=O)NCC2(N3CCOCC3)CCCCC2)cc(Cl)c1OC(C)C | inactive: 1.43% |
| O=[As](O)(O)c1cccnc1 | inactive: 5.13% |
| CS(=O)(=O)c1ccc(Cl)c(NC(=O)COC(=O)C(O)(c2ccccc2)c2ccccc2)c1 | inactive: -14.7% |
| N#CCCN(C(=O)COC(=O)C(O)(c1ccccc1)c1ccccc1)c1ccc(F)cc1 | inactive: -6.78% |
| CCOP1(=S)c2c(C)nn(CCC#N)c2N=C(c2ccc(F)cc2)N1C (stereo unspecified) | inactive: -5.54% |
| CN(C(=O)Cc1ccccc1)[C@@H]1CC[C@]2(CCCO2)C[C@H]1N1CCCC1 | inactive: -5.22% |
| CN(C)C(=O)c1cc([N+](=O)[O-])cc2c1-c1c(cc([N+](=O)[O-])cc1[N+](=O)[O-])C2=O | inactive: -5.92% |
| O=[N+]([O-])c1ccc2c(c1)nnn2O | inactive: -4.48% |
| CN(C(=O)Cc1ccc(Cl)c(Cl)c1)[C@H]1CC[C@@]2(CCCO2)C[C@@H]1N1CCCC1 | inactive: -5.22% |
| NC(=O)Nc1ccc([As](=O)(O)O)cc1 | inactive: 14.1% |
| O=C(O)COc1ccc([As](=O)(O)O)cc1[N+](=O)[O-] | inactive: 8.74% |
| Nc1ccccc1[As](=O)(O)c1ccccc1 | inactive: -3.54% |
| CCOP1(=S)c2c(C)nn(CCC#N)c2N=C(c2ccccc2F)N1C (stereo unspecified) | inactive: 5.81% |
| O=P(Nc1nccs1)(c1ccccc1)c1nc2ccccc2s1 (stereo unspecified) | inactive: -7.81% |
| O=P(Nc1nccs1)(Oc1ccccc1)Oc1ccccc1 | inactive: -8.22% |
| CS(=O)(=O)c1cc([N+](=O)[O-])c2no[n+]([O-])c2c1 | inactive: 0.644% |
| Nc1cccc([As](=O)(O)c2ccccc2)c1 | inactive: -9.23% |
| NS(=O)(=O)c1cccc(NC(=O)COC(=O)C(O)(c2ccccc2)c2ccccc2)c1 | inactive: 3.95% |
| O=P1(Nc2ccc(Br)cn2)COc2ccccc2OC1 | inactive: -3.4% |

| SMILES | inhibition |
| --- | --- |
| O=[As](O)(c1cccs1)c1cccs1 | inactive: -0.443% |
| Cc1ccc(OCC(=O)OC2CN3CCC2CC3)cc1 (stereo unspecified) | inactive: 4.95% |
| O=P1(Nc2ncccn2)COc2ccccc2OC1 | inactive: -1.36% |
| CN(C)C1(CNC(=O)c2ccc(S(C)(=O)=O)cc2)CCCCC1 | inactive: -8.64% |
| O=C(/C=C/c1ccccc1)OC1CN2CCC1CC2 (stereo unspecified) | inactive: -17% |
| Cc1nn(-c2ccccc2)c2c1P(=O)(N1CCOCC1)N(C)C(c1ccccc1)=N2 (stereo unspecified) | inactive: -4.41% |
| Cc1ccc(C(=O)OC2CN3CCC2CC3)cc1 (stereo unspecified) | inactive: 0.789% |
| CC1CCC(C(C)C)C(OP(=O)(Nc2ccccn2)c2ccccc2)C1 (stereo unspecified) | inactive: 2.05% |
| CN(C(=O)Cc1ccc(Cl)c(Cl)c1)[C@@H]1CCCC[C@H]1N1CCCC1 | inactive: -3.19% |
| CC(C)/C=N\N=C(\N)N[N+](=O)[O-] | inactive: -0.691% |
| O=[As](O)(c1ccccc1Br)c1ccccc1Br | inactive: 9.2% |
| CC1(CBr)Cn2c(nc3ccccc3c2=O)S1 (stereo unspecified) | inactive: -4.14% |
| COc1ccccc1CNC(=O)COC(=O)C(O)(c1ccccc1)c1ccccc1 | inactive: 2.02% |
| Clc1n[nH]nc1-c1nn[nH][15n]1 | inactive: -1.85% |
| CC(C)(C)C(=O)NC(Sc1ncccn1)C(Cl)(Cl)Cl (stereo unspecified) | inactive: 4.86% |
| CCC1=CC2Cc3nc4ccc(Cl)cc4c(N)c3C(C1)C2 (stereo unspecified) | inactive: 1.82% |
| O=P1(Nc2ccccn2)COc2ccccc2OC1 | inactive: -6.01% |
| CCOP(=O)(NC(=NC(C)c1ccccc1)NC(C)c1ccccc1)OCC (stereo unspecified) | inactive: -3.31% |
| CN(CCCl)Cc1cc(Cl)c(NC2=NCCN2)c(Cl)c1 | inactive: 0.11% |
| CCOP(=O)(Nc1ccc(C)cn1)OCC | inactive: 0.541% |
| CCC(C)N(CC(C)C)C(=S)SC(NC(C)=O)C(Cl)(Cl)Cl (stereo unspecified) | inactive: -3.28% |
| O=C(OC1CN2CCC1CC2)c1cccc([N+](=O)[O-])c1 (stereo unspecified) | inactive: -6.65% |
| CCOC(=O)c1ccc(NC(=O)C(C)(CCl)SC)cc1 (stereo unspecified) | inactive: -5.33% |
| O=C(COc1ccccc1)OC1CN2CCC1CC2 (stereo unspecified) | inactive: 4.8% |
| O=C(Nc1ccncc1[N+](=O)[O-])c1ccc([N+](=O)[O-])cc1[N+](=O)[O-] | inactive: 4.78% |
| COP1(=S)c2c(C)nn(CCC#N)c2N=C(c2ccc(F)cc2)N1C (stereo unspecified) | inactive: 10.7% |

| SMILES | inhibition |
| --- | --- |
| Cc1cc(SC(NC=O)C(Cl)(Cl)Cl)ncn1 (stereo unspecified) | inactive: -10.9% |
| O=P(Nc1ccccn1)(c1cccc2ccccc12)c1cccc2ccccc12 | inactive: 0.954% |
| CCOC(=O)Nc1cccc([As](=O)(O)O)c1 | inactive: -0.798% |
| CCCCOc1ccc(C(=O)NCC2(N3CCCCC3)CCCCC2)cc1OC | inactive: 8.35% |
| Cc1cc(SC(NC(=O)c2ccccc2)C(Cl)(Cl)Cl)nc(C(C)C)n1 (stereo unspecified) | inactive: -3.17% |
| CCOC(=O)Nc1ccc([As](=O)(O)O)c(O)c1 | inactive: 3.36% |
| O=C(OC1CN2CCC1CC2)c1cccc2[nH]cnc12 (stereo unspecified) | inactive: 3.25% |
| CCN(CC)C(=S)SC(NC=O)C(Cl)(Cl)Cl (stereo unspecified) | inactive: 11.3% |
| CC(C)NC(=O)NP(=O)(Oc1ccccc1)Oc1ccccc1 | inactive: 2.61% |
| O=[N+]([O-])c1cc([N+](=O)[O-])c(-c2ccn[nH]2)s1 | inactive: -5.5% |
| ClCCSc1nnc(-c2cccnc2)o1 | inactive: 3.64% |
| CC(C)c1ccc(OP(=O)(Nc2ccccn2)Oc2ccccc2F)cc1 (stereo unspecified) | inactive: 1.19% |
| Cc1ccc(OP(=O)(Nc2ccc([N+](=O)[O-])cn2)Oc2ccc(C)cc2)cc1 | inactive: 3.89% |
| Cc1ccc2nc3c(c(C)c2c1)CC(C(Cl)Cl)S3 (stereo unspecified) | inactive: -4.52% |
| C[As](=O)(O)c1cccc(C(=O)O)c1 | inactive: 7.24% |
| O=[As](O)(c1ccc(O)cc1)c1ccccc1O | inactive: -2.94% |
| COc1cc(C(=O)NCC2(N3CCOCC3)CCCCC2)ccc1OCC(C)C | inactive: 0.953% |
| COc1ccc(N/C(=N/P(=O)(N2CCOCC2)N2CCOCC2)N2CCOCC2)cc1 | inactive: 3.92% |
| COc1ccc2nc(NP(=O)(c3ccccc3)c3ccccc3)sc2c1 | inactive: -4.59% |
| COc1cc(I)ccc1[As](=O)(O)O | inactive: -4.43% |
| Cc1c2c(nc3ccccc13)SC(C(Cl)Cl)C2 (stereo unspecified) | inactive: -6.5% |
| O=C(OC1CN2CCC1CC2)C12CC3CC(CC(C3)C1)C2 (stereo unspecified) | inactive: 5.97% |
| Cc1cc(=O)[nH]c(N[N+](=O)[O-])n1 | inactive: -5.5% |
| Oc1ccccc1CNc1ccccn1 | inactive: -3.7% |
| Cc1c2non([O-])c-2c(C)[n+](=O)[n+]1[O-] | inactive: 3.48% |
| O=C(NC(Sc1ccncn1)C(Cl)(Cl)Cl)c1ccccc1 (stereo unspecified) | inactive: -5.51% |

| SMILES | inhibition |
| --- | --- |
| CC(C)CC(=O)NC(Sc1ccc(Cl)cc1)C(Cl)(Cl)Cl (stereo unspecified) | inactive: -4.85% |
| Nc1cc(N)c2nonc2c1[N+](=O)[O-] | inactive: 6.51% |
| Clc1ccc(Cl)c(NC2=NCC(CBr)S2)c1 (stereo unspecified) | inactive: 3.98% |
| CN1CCCC(OC(=O)C(c2ccccc2)c2ccccc2)C1 (stereo unspecified) | inactive: 0.1% |
| COc1ccccc1OP(=O)(Nc1ccc(C)cn1)Oc1ccccc1OC | inactive: -14.6% |
| Cc1ccc(OP(=O)(Nc2nccs2)Oc2ccc(C)cc2)cc1 | inactive: 0.462% |
| CN(C(=O)Cc1ccc(Cl)c(Cl)c1)[C@H]1CCCC[C@H]1N1CCCC1 | inactive: 3% |
| Cc1ccc(N/C(=N/P(=O)(N2CCOCC2)N2CCOCC2)N2CCOCC2)cc1 | inactive: 7.62% |
| NC(=O)c1cc([N+](=O)[O-])cc([N+](=O)[O-])c1N | inactive: -14.5% |
| CCN(N=Nc1nonc1N)c1nonc1N | inactive: -1.36% |
| O=[N+]([O-])c1cc([N+](=O)[O-])c(CCN2CCOCC2)c([N+](=O)[O-])c1 | inactive: 8.63% |
| CCOP(=O)(Nc1ccccc1)OCC | inactive: -3.48% |
| Cc1cc(SC(NC(=O)c2ccc(F)cc2)C(Cl)(Cl)Cl)ncn1 (stereo unspecified) | inactive: -6.53% |
| CN(C(=O)Cc1ccc(Cl)c(Cl)c1)[C@H]1CCCC[C@@H]1N1CCCC1 | inactive: -2.76% |
| Cc1ccc(NP(=O)(Oc2ccccc2F)Oc2ccccc2F)nc1 | inactive: 7.18% |
| O=P(Nc1nc2ccc(Cl)cc2s1)(c1ccccc1)c1ccccc1 | inactive: -8.7% |
| O=C(O)c1ccccc1[As](=O)(O)O | inactive: -3.95% |
| CC(=O)Nc1ccc([As](=O)(O)O)cc1 | inactive: -0.787% |
| O=[N+]([O-])c1cccc(NC2=NCC(CBr)S2)c1 (stereo unspecified) | inactive: 5.17% |
| O=[N+]([O-])c1ncn(CCn2ncnc2[N+](=O)[O-])n1 | inactive: -2.38% |
| CC(C)(C)C(=O)NC(Sc1ccncn1)C(Cl)(Cl)Cl (stereo unspecified) | inactive: 2.14% |
| O=C(Nc1cc([As](=O)(O)O)ccc1O)c1ccccc1 | inactive: -8.84% |
| CC1CCN(C(=O)Oc2c(Cl)cc(Cl)c3cccnc23)CC1 | inactive: -2.64% |
